Our source for the inhibition values is PubChem BioAssay AID504634 (The Scripps Research Institute Molecular Screening Center, 2011).

The chains behind the UniProt entries cited, without tags or fusion partners.
UniProt P47898, whole entry, looked up: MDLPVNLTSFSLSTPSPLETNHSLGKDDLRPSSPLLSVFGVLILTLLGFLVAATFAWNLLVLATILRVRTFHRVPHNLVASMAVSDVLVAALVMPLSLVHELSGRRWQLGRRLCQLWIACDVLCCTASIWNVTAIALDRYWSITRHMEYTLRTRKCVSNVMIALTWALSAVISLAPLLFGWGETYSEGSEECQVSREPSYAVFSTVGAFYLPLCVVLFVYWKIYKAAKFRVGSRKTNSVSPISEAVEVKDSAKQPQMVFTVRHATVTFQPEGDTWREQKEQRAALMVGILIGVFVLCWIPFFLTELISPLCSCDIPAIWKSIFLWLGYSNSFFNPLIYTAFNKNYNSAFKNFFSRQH

The entries are a selection whose mix differs from that of the whole data set. Calls of active or inactive are those of the source. No stated cut-off is given here; in the data, active means inhibition mostly above about 23% (no sharp cut-off); inactive means mostly below about 18%.

For the assay, the target named is 5-hydroxytryptamine receptor 5A (Homo sapiens) (UniProt P47898). The experiment in a line: HTR5A inverse agonists in luminescence cell assay, primary screen, counter-screen for OPRM1-OPRD1 heterodimer inverse agonist project, full-deck HTS (AID 504634).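 Further: 0% = cells with DMSO and 100% = no-cell wells with DMSO.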 As to conditions: HTR5A cell line, inverse agonism, at 9.3 µM, hits give high values.
As for `COC(=O)c1ccc(N2C(=O)CC(N3CCC(n4c(=O)[nH]c5ccccc54)CC3)C2=O)cc1` (stereo not given), the inhibition is inactive: -25.1%.
As to `COc1cccc(NC(=O)Cn2c(-c3cncs3)nc3ccccc32)c1`, the inhibition was inactive: 5.66%.
The same measure for `CCc1nc2ccccc2n1CC(=O)NC1CCS(=O)(=O)C1` (stereo not given): inactive: -1.25%; for `COc1cccc(CNC(=O)CCNC(=O)N2CCn3c2nc2ccccc23)c1`: inactive: 6.86%.
The same measure for `O=C1CCC(=O)N1c1ccc(NC2CCN(Cc3ccccc3)CC2)c([N+](=O)[O-])c1`: inactive: 7.26%; for `O=C(c1ccccc1Br)N1CCn2c1nc1ccccc12`: inactive: -1.75%; for `Cc1cccc(NC(=O)Cn2c(/C=C/c3ccccc3)nc3ccccc32)c1`: inactive: -0.71%.
The same measure for `O=C(O)CNc1ccc([As](=O)(O)O)cc1`: inactive: -3.06%; for `Cc1nn(CC(=O)Nc2ccc3c(c2)nc2n3CCN(C3CCCCC3)C2)c(=O)c2ccccc12`: inactive: 19.8%.
As for `Cc1noc(C)c1S(=O)(=O)N(CC(=O)N1CCn2c1nc1ccccc12)c1ccc(C(C)C)cc1`, the inhibition was inactive: 4.93%.
For `O=[N+]([O-])c1ccc(NC2CCN(Cc3ccccc3)CC2)c2ccncc12` the value was inactive: -17.7%; for `CCOC(=O)N1CCN(c2c(NC3CCN(Cc4ccccc4)CC3)c(=O)c2=O)CC1`, inactive: 9.41%; for `CC(C)Sc1nc2ccccc2n1CC(N)=O`, inactive: 10.5%.
For `O=C(Cn1cnc2ccccc21)N1CCN(S(=O)(=O)c2ccccc2)CC1` the value was inactive: -6.16%; for `CN(C)C1(c2nnnn2-c2ccc(Cl)cc2)CCCCC1`, inactive: -23.5%; for `O=[N+]([O-])c1cccc(NC2=NCC(CBr)S2)c1` (stereo not given), inactive: 2.19%.
The same measure for `COc1ccc(Cc2nc3ccccc3n2CC(=O)N/N=C/c2ccc(O)cc2)cc1OC`: inactive: 1.8%.
`COC(=O)C1(C)COP(=O)(Nc2ccccc2)OC1` (stereo not given): the inhibition was inactive: 1.27%.
For `CCN(CC)S(=O)(=O)c1ccc(NC2CCN(Cc3ccccc3)CC2)nc1` the value was inactive: -14.6%; for `O=S(=O)(Cc1ccccc1)N1CCn2c(nc3ccccc32)C1`, inactive: 5.1%.
The same measure for `CC1CCCN(Cc2nc3c(c(=O)n(C)c(=O)n3C)n2CC(N)=O)C1` (stereo not given): inactive: -19.1%; for `CN1CCN(c2nc3c(c(=O)n(C)c(=O)n3C)n2CC(N)=O)CC1`: inactive: -15.2%; for `CSc1nc(N)nc2c1ncn2CC(=O)N1CCN(c2ccccn2)CC1`: inactive: -1.07%.
For `CCOc1ccc(NC(=O)CN(C)C(=O)Cn2cnc3c2c(=O)n(C)c(=O)n3C)cc1OCC` the value was inactive: -8.65%; for `CC(C)C[C@H](NC(=O)N1CCn2c1nc1ccccc12)C(=O)NCC1CCCO1` (stereo not given in full), inactive: -20.6%.
As for `O=[N+]([O-])c1ncn(CCn2ncnc2[N+](=O)[O-])n1`, the inhibition was inactive: -9.13%.
For `CCCn1c(=O)[nH]c(=O)c2c1nc(-c1ccc(OC(F)F)cc1)n2CCN1CCOCC1` the value was inactive: 20.7%; for `Cn1c(=O)c2ncn(CC(=O)Nc3nc(-c4ccc(Cl)cc4)cs3)c2n(C)c1=O`, inactive: -26.8%.
The same measure for `CC(C)(C)NC(=O)Cn1c(SCC(=O)N2CCCCCC2)nc2ccccc21`: inactive: -60.5%; for `CSCC[C@H](NC(=O)N1CCn2c1nc1ccccc12)C(=O)NCc1ccco1`: inactive: -9.27%.
For `Cc1ccc2c(c1)C1CN(C)CCC1N2C(=O)Nc1cccc(C(F)(F)F)c1` (stereo not given) the value was inactive: 2.4%.
With `Cn1c(=O)c2c(ncn2CC(=O)Nc2ccc(N3CCOCC3)cc2)n(C)c1=O`, the inhibition is inactive: -11.1%.
For `CSc1nc2ccccc2n1CC(=O)N1CCCCC1` the value was inactive: 22.3%.
For `CC(C)OC(=O)c1ccc(NC(=O)Cn2c(-c3nonc3N)nc3ccccc32)cc1` the value was inactive: -29%; for `C/C(=N\NC(=O)Cn1c(-c2ccccn2)nc2ccccc21)c1ccccc1`, inactive: 11.3%; for `O=[N+]([O-])c1ccc2c(c1)nc1n2CCN(CC2CCCO2)C1` (stereo not given), inactive: -24.1%.
With `CN(C)C(=O)Cn1c(=O)n(S(=O)(=O)c2ccccc2)c2ccccc21`, the inhibition was inactive: -12.8%.
The same measure for `C/C(=N\NC(=O)Cn1cnc2ccccc21)c1cccs1`: inactive: 17.5%; for `c1ccc(CN2CCC(Nc3ncnc4sccc34)CC2)cc1`: inactive: -1.58%; for `CCCCc1nc2ccccc2n1CC(=O)NN`: inactive: 2.82%.
For `CSCC[C@H](NC(=O)N1CCn2c1nc1ccccc12)C(=O)N[C@@H](C(=O)O)c1ccccc1`, the inhibition is inactive: -33.8%.
The same measure for `CC(C)(C)C(=O)NC(Sc1ccncn1)C(Cl)(Cl)Cl` (stereo not given): inactive: 7.66%.
Turning to `COc1ccc(CN(C)C(=O)Cn2cnc3c(NCc4ccccc4)ncnc32)cc1OC`, the inhibition was inactive: 6.46%.
For `CCN(Cc1ccccc1)C(=O)Cn1c(C(C)O)nc2ccccc21` (stereo not given) the value was inactive: -24.3%; for `Cn1c(=O)c2c(ncn2CC(=O)NC(C)(C)C)n(C)c1=O`, inactive: 0.11%; for `C[C@@H](NC(=O)Cn1cnc2c(NCc3ccccc3)ncnc21)c1cccc2ccccc12`, inactive: -3.17%.
The same measure for `CCCCOC(=O)Cn1c(=N)n(CCN(CC)CC)c2ccccc21`: inactive: -1.08%; for `O=C(Cn1c(COc2ccccc2)nc2ccccc21)Nc1cccc(Cl)c1`: inactive: 4.36%; for `Cc1cccc(NC(=O)Cn2c(=O)n(C)c3ccccc32)c1`: inactive: 15.6%.
For `COc1ccc(NC2CCN(C3CC(=O)N(c4ccc(F)c(Cl)c4)C3=O)CC2)cc1` (stereo not given) the value was inactive: 7.99%.
Take `CN(C(=O)Cc1ccc(Cl)c(Cl)c1)[C@H]1CCCC[C@@H]1N1CCCC1`: the inhibition is inactive: -47.8%.
The same measure for `c1ccc(CN2CCC(Nc3nc(-c4cccs4)nc4ccccc34)CC2)cc1`: inactive: 5.38%; for `Cc1ccc(NP(=O)(Oc2ccccc2F)Oc2ccccc2F)nc1`: inactive: -4.84%.
On to `Cn1c(=O)c2c(ncn2CC(=O)Nc2nc3ccc(F)cc3s2)n(C)c1=O`, for which the inhibition was inactive: -18.2%.
The same measure for `CCOP(=O)(Nc1ccccc1)OCC`: inactive: 10%.
With `CCOc1ccc2nc(NC(=O)Cn3cnc4c3c(=O)n(C)c(=O)n4C)sc2c1`, the inhibition is inactive: -4.25%.
For `O=C(Cn1c(/C=C/c2ccccc2)nc2ccccc21)Nc1ccc(F)cc1` the value was inactive: 11.8%; for `Cc1csc2c(NC3CCN(Cc4ccccc4)CC3)ncnc12`, inactive: -9.48%.
The same measure for `CCC(=O)Nc1nc2ccccc2n1CCN1CCOCC1`: inactive: 10.7%; for `Cc1cccc(OCC(O)Cn2c(=N)n(CCN3CCOCC3)c3ccccc32)c1` (stereo not given): inactive: 15.3%; for `O=C(CSc1nc2ccccc2n1CC(=O)N1CCCC1)NCc1ccc2c(c1)OCO2`: inactive: 8.06%.
The same measure for `Cc1cc(SC(NC(=O)c2ccc(F)cc2)C(Cl)(Cl)Cl)ncn1` (stereo not given): inactive: 16.2%.
Consider `COC(=O)C1=C(C)N=C2SCCC(=O)N2C1/C=C/c1ccccc1` (stereo not given), for which the inhibition was inactive: 3.14%.
Turning to `COC(=O)c1ccc(CNC(=O)Cn2cnc3c(OCc4ccccc4)ncnc32)cc1`, the inhibition was inactive: -19.1%.
For `CC1CCN(C(=O)Cn2c(SCC(=O)Nc3nccs3)nc3ccccc32)CC1` the value was inactive: 5.46%; for `O=C(Cn1cnc2c(NCc3ccccc3)ncnc21)NCc1nc2ccccc2[nH]1`, inactive: 5.79%.
For `CCOC(=O)c1ccccc1NC(=O)Cn1c(-c2nonc2N)nc2ccccc21` the value was inactive: -18.9%.
For `CC(C)NC(=O)CC1C(=O)N(Cc2ccccc2)C(C)c2nc3ccccc3n21` (stereo not given) the value was inactive: -11.1%; for `C(=N\c1nc2ccccc2n1CCN1CCCCC1)/c1ccc2c(c1)OCO2`, inactive: 4.9%.
In the case of `O=C(Cn1c(Cc2ccccc2)nc2ccccc21)NCc1ccc2c(c1)OCO2`, the inhibition was inactive: 5.3%.
For `O=P(Nc1nc2ccc(Cl)cc2s1)(c1ccccc1)c1ccccc1` the value was inactive: -1.9%.
The same measure for `Cc1ccc(-c2csc(NCCn3c(-c4ccncc4)nc4ccccc43)n2)cc1`: inactive: -7.94%; for `Cc1ccc(CNC(=O)Cn2cnc3c(NCc4ccccc4)ncnc32)o1`: inactive: 10.3%; for `Cc1ccc(C)c(S(=O)(=O)N2CCN(C(=O)Cn3c(C(F)(F)F)nc4ccccc43)CC2)c1`: inactive: 1.09%.
For `CC(C)[C@H](NC(=O)N1CCn2c1nc1ccccc12)C(=O)NCc1ccccc1Cl` the value was inactive: -19.4%.
As for `COc1ccc(CN(C)C(=O)Cn2cnc3c(OCc4ccccc4)ncnc32)cc1OC`, the inhibition is inactive: 2.14%.
For `O=C(Cn1cnc2ccccc21)NCc1ccccc1` the value was inactive: -17.7%; for `Cn1c(=O)n(CCN2CCOCC2)c(=O)c2c1nc1n2CCN1c1ccc(Oc2ccccc2)cc1`, inactive: 6.63%; for `COc1ccc(N2CCN(C(=O)Cn3cnc4c3c(=O)n(C)c(=O)n4C)CC2)cc1`, inactive: 5.99%.
The same measure for `CCCC1OP(N)(=O)OCC1CC` (stereo not given): inactive: 9.19%.
In the case of `Cn1c(=O)c2c(ncn2CC(=O)NC[C@H]2O[C@@H](n3cnc4c(N)ncnc43)[C@H](O)[C@@H]2O)n(C)c1=O`, the inhibition is inactive: -2.33%.
Take `O=C(O)c1ccccc1[As](=O)(O)O`: the inhibition was inactive: -5.93%.
For `O=C(Cn1c(COc2ccccc2)nc2ccccc21)Nc1cc(Cl)cc(Cl)c1` the value was inactive: 18.3%; for `CC(=O)Nc1ccc([As](=O)(O)O)cc1`, inactive: -8%.
Take `Cn1c(=O)c2ncn(CC(=O)Nc3ccc4c5c(cccc35)CC4)c2n(C)c1=O`: the inhibition is inactive: -16.4%.
For `CCOc1cccc(N2C(=O)CC(n3cnc4ccccc43)C2=O)c1` (stereo not given) the value was inactive: 0.06%.
On to `Cc1ccc2c(c1)C1CN(C)CCC1N2C(=O)c1ccccc1NS(=O)(=O)c1ccc(F)cc1` (stereo not given), for which the inhibition was inactive: 0.27%.
`O=C(Cn1c(NCCO)nc2ccccc21)NCC(F)(F)F`: the inhibition was inactive: -1.44%.
The same measure for `CN1C(=O)Cn2c1nc1ccccc12`: inactive: -22.9%; for `CC(C)C[C@H](NC(=O)N1CCn2c1nc1ccccc12)C(=O)N1CCCCC1`: inactive: -32.9%.
